In BindingDB's records for doi:10.1038/npp.1993.4 (Eli Lilly, 1993):

Biological target: Norepinephrine transporter (Rattus norvegicus, UniProt Q9JIA2)

CNCC[C@@H](Oc1cccc2ccccc12)c1cccs1 [(R)-duloxetine]
Ki: 0.0159 µM
